This series is described as follows: Stability (half-life) of JNK inhibitors in human serum, UPLC-MS. As to the method: The experiment was performed as described by Tugyi et al. (Proc Natl Acad Sci USA, 2005, 413-418). The remaining intact peptide was quantified by UPLC-MS.

Here are results for one sequence from patent publication US8981052B2, “JNK inhibitor molecules” (Xigen Inflammation Ltd., priority 2010, dated 2015).

With “GRKKRRQRRRPPRPKRPTTLNLFPQVPRSQD [SEQ ID NO: 196]”, the “sensitivity to proteolytic degradation” value (general statement in the introduction) is “quickly proteolytically degraded”. Also, the “time until totally degraded into amino acids residues” value (human serum (50%; 10 and 50% in PBS 1×), 0.1 mM peptide) is not above 6 h.
